Source: patent publication US20050137220A1 (Pharmacia Corporation, priority 2003, published 2005)

Chains of the proteins cited; added tags and fusions are not shown.
UniProt P49137, whole entry, species assumed: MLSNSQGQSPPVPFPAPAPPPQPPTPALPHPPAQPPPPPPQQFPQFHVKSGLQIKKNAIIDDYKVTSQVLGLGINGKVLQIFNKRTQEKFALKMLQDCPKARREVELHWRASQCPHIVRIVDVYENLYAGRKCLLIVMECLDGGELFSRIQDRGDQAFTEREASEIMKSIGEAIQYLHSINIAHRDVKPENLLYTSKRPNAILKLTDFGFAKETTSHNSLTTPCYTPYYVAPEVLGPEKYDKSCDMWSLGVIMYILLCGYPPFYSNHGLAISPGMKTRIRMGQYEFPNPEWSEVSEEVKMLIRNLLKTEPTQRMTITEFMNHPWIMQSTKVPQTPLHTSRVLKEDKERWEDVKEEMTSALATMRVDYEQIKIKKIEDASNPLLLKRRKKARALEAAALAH

Target: MK-2 (Homo sapiens, UniProt P49137)
Assay: Determination of MK-2 IC50 (phosphorylation of HSP-peptide, anion exchange resin capture assay)
Assay type: biochemical
Settings: additional values are replicate IC50 experiments; mixture of stereoisomers implied unless otherwise noted

Compound | IC50 [µM]
COc1ccc2[nH]c3c(c2c1)CC(CN)NC3=O (stereo not shown) | 1.32
CSc1ccc2[nH]c3c(c2c1)C1CCN(C1)C3C(=O)O (stereo not shown) [Example 50] | 7.01
COC(=O)C1c2[nH]c3ccc(OC)cc3c2CCN1C (stereo not drawn) [Example 149, methyl 6-methoxy-2-methyl-2,3,4,9-tetrahydro-1H-beta-carboline-1-carboxylate] | 149
COC(=O)C1c2[nH]c3ccc(O)cc3c2CCN1C (stereo not drawn) [Example 150, methyl 6-hydroxy-2-methyl-2,3,4,9-tetrahydro-1H-beta-carboline-1-carboxylate] | 149
